Measurements taken from patent US6187552A, “Method for identifying inhibitors of JAK2/cytokine receptor binding” (Pharmacia & Upjohn Company, priority 1998, dated 2001).

Columns and labels:
βc in human TF-1 cells = assay: Tyrosine phosphorylation of βc in human TF-1 cells stimulated with IL-3 (immunoblot); type: cell-based
Experimental: (§1) After incubation on ice for 15 min, debris was pelleted by centrifugation at 16,000×g. βc was immunoprecipitated from the lysate by rotating overnight at 4° with a 1:300 dilution of anti-βcantibody (Upstate Biotechnology, Lake Placid, N.Y.). Twenty microliters of protein A-Sepharose (Pharmacia Biotech, Uppsala, Sweden) were added to each lysate, and the incubation was continued one hour.
(§2) The human erythroleukemia cell line TF-1 [46] was obtained from the American Type Culture Collection and grown in RPMI 1640 supplemented with 10% FBS, 100 U/ml penicillin (GibcoBRL, Gaithersburg, Md.), 100 μg/ml streptomycin (GibcoBRL, Gaithersburg, Md.), and 2.5 ng/ml recombinant human IL-3 (Biosource, Camarillo, Calif.). Before experiments, TF-1 cells were grown overnight in RPMI 1640 medium with 1% PBS in the absence of IL-3. Cells were then resuspended at 2×10^7 cells/ml in fresh RPMI 1640 with 1% FBS and treated as described for eosinophils above, except 20 ng/ml IL-3 was used and the lysis buffer was 20 mM Tris, pH 7.6, 50 mM NaCl, 50 mM NaF, 1 mM sodium orthovanadate, 5 mM EGTA, and 1% Triton X-100. For cells treated without IL-3, PBS+0.1% BSA was added instead.

JAK2 in human TF-1 cells = assay: Tyrosine phosphorylation of JAK2 in human TF-1 cells stimulated with IL-3 (immunoblot); type: cell-based
Experimental: as §2
as §1, with “JAK2” for “After incubation on ice for 15 min, debris was pelleted by centrifugation at 16,000×g. βc”, “anti-JAK2 antibody” for “anti-βcantibody”
The beads were washed three times by centrifugation with 1 ml cold lysis buffer, resuspended in sodium dodecyl sulfate-polyacrylamide gel electrophoresis (SDS-PAGE) loading buffer, boiled 10 min, and separated by electrophoresis on 4-20% acrylamide gradient gels (Integrated Separation Systems, Natick, Mass.). Proteins were transferred by the method of Towbin et al to Optitran (Schleicher & Schuell, Keene, N.H.). After blocking in TBS-T (20 mM Tris, pH 7.4, 100 mM NaCl, and 0.05% Tween-20) with 1% bovine serum albumin at 37° for one hour, peroxidase-conjugated anti-phosphotyrosine antibody RC20 (Transduction Laboratories, Lexington, Ky.) was added at a dilution of 1:3000 and incubation continued for two hours at room temperature. The blot was washed three times for 10 min at room temperature in TBS-T and developed using SuperSignal HRP (Pierce Chemical, Rockford, Ill.).

B1: IL-3: recombinant human IL-3 (Biosource) (protein, UniProt P08700 20-152, looked up)
Interleukin-3: APMTQTTPLKTSWVNCSNMIDEIITHLKQPPLPLLDFNNLNGEDQDILMENNLRRPNLEAFNRAVKSLQNASAIESILKNLLPCLPLATAAPTRHPIHIKDGDWNEFRRKLTFYLKTLENAQAQQTTLSLAIF
tyrosine phosphorylation of βc, time course (βc in human TF-1 cells; 20 ng/ml IL-3, 37°, FIG. 3): time course matching that seen in eosinophils | time of peak phosphorylation of βc (βc in human TF-1 cells; 200 ng/ml IL-3): 1 min | JAK2 tyrosine phosphorylation (JAK2 in human TF-1 cells; 20 ng/ml IL-3, 37°, FIG. 4): easily detectable | JAK2 tyrosine phosphorylation, time course (JAK2 in human TF-1 cells; 20 ng/ml IL-3, 37°, FIG. 4): its time course paralleled that of βc | time of peak phosphorylation of JAK2 (JAK2 in human TF-1 cells; 200 ng/ml IL-3): 1 min
